{"source": "patent US20080025946A1", "about": "“INTERLEUKIN 21 AND TYROSINE KINASE INHIBITOR COMBINATION THERAPY” (priority 2006, published 2008)", "origin": "cited, not measured here", "tested_on": "advanced kidney cancer", "details": "high-dose; cited from earlier work", "data": [{"substance": "IL-2: high-dose interleukin 2 (IL-2), immunotherapy for advanced kidney cancer", "values": [{"measurement": "durable complete responses, share of selected patients", "value": "approximately 7%"}]}]}
